Earlier results, collected in patent publication US20140322202A1, “TREATMENT WITH ANTI ErbB2 ANTIBODIES” (Genentech, Inc., priority 1999, published 2014).

Legend:
[1] = test system: breast cancer cells that contain high levels of ErbB2
[2] = test system: breast cancer cells that contain high levels of ErbB2; remark: listed apart in the source
[3] = test system: ErbB2-overexpressing metastatic breast cancers; conditions: patients with ErbB2-overexpressing metastatic breast cancers that had received extensive prior therapy
[4] = test system: BT-474 human breast adenocarcinoma cells; conditions: breast cancer xenografts in nude mice injected with BT-474 cells

Substance: HERCEPTIN: recombinant humanized anti-ErbB2 monoclonal antibody, a humanized version of the murine anti-ErbB2 antibody 4D5
- inhibition of growth in vitro [1]: markedly inhibits
- inhibition of growth in human xenografts [2]: markedly inhibits
- clinical activity [3]: clinically active
- enhancement of activity of paclitaxel (TAXOL) and doxorubicin [4]: enhance the activity
